Here are results for 1 molecule from ChEMBL document CHEMBL4414612, “Synthesis and Pharmacological Evaluation of 1-Phenyl-3-Thiophenylurea Derivatives as Cannabinoid Type-1 Receptor Allosteric Modulators” (J Med Chem, 2019).

Chains of the proteins cited; added tags and fusions are not shown.
UniProt P21554, whole entry: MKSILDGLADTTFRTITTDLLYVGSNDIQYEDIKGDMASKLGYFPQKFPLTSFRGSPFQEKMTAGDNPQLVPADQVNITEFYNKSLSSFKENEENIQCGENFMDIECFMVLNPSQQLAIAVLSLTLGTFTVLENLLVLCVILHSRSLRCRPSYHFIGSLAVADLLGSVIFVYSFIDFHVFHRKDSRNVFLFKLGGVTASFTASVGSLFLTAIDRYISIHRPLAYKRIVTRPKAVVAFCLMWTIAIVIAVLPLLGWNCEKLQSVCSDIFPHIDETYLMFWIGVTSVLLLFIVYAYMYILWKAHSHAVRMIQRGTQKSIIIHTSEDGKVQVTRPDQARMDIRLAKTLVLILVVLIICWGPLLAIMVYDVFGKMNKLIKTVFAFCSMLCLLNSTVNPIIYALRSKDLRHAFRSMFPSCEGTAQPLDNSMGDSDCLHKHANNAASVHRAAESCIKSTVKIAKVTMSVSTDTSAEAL

In this test the target is Cannabinoid receptor 1 (Homo sapiens, UniProt P21554). Nature of the test: Allosteric modulator activity at human CB1 receptor expressed in CHO-RD-HGA16 cells co-expressing Galpha16 assessed as suppression of 100 nM CP55,940-induced calcium mobilization pre-incubated for 15 mins by Calcium 5 dye based FLIPR assay relative to control. The test is classed as functional, cell-based. For orientation: Calcium assays in cells follow changes in intracellular calcium, usually with a dye or a luminescent sensor.

SMILES strings stand for the structures.

Broadly, the inhibition is how much of the control response was suppressed. For `O=C(Nc1ccc(Cl)cc1)Nc1cc(-c2ccccc2)ccn1`, the inhibition amounted to 33%.
